target: human CB2 receptor (hCB2) (Homo sapiens, UniProt P34972); assay: cell-based; type: cell-based; details: not given

Sequences of proteins named here, by UniProt entry; tags and fusion partners are left off.
UniProt P34972, whole entry: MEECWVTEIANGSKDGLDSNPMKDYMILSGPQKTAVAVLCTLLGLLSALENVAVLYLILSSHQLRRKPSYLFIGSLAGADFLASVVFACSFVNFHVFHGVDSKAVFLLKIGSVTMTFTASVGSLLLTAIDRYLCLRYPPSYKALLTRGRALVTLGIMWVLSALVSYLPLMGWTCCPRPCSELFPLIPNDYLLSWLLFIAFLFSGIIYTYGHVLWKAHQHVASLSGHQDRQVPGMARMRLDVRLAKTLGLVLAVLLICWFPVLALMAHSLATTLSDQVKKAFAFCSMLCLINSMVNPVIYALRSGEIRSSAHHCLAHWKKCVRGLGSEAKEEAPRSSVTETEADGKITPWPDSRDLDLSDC

Row | Structure (SMILES) | EC50 [nM]
1 | CC(C)(C)[C@@H](CO)NC(=O)c1nc(-c2ccccc2)n2c1CN(CC1CC1)CC2 [Compound 84, (S)-7-(cyclopropylmethyl)-N-(1-hydroxy-3,3-dimethylbutan-2-yl)-3-phenyl-5,6,7,8-tetrahydroimidazo[1,5-a]pyrazine-1-carboxamide] | > 10000
2 | COC(=O)[C@@H](NC(=O)c1nc(-c2ccccc2)n2c1CN(C)CC2)C(C)(C)C [Compound 86, (S)-methyl 3,3-dimethyl-2-(7-methyl-3-phenyl-5,6,7,8-tetrahydro-imidazo[1,5-a]pyrazine-1-carboxamido)butanoate] | > 10000
3 | CNC(=O)[C@H](C)NC(=O)c1nc(-c2ccccc2)n2c1CN(S(=O)(=O)c1ccc(F)cc1)CC2 [Compound 110, (S)-7-(4-fluorophenylsulfonyl)-N-(1-(methylamino)-1-oxopropan-2-yl)-3-phenyl-5,6,7,8-tetrahydroimidazo[1,5-a]pyrazine-1-carboxamide] | > 10000
4 | CNC(=O)[C@@H](NC(=O)c1nc(-c2ccccc2)n2c1CN(C(=O)c1ccccc1)CC2)C(C)(C)C [Compound 127, (S)-7-benzoyl-N-(3,3-dimethyl-1-(methylamino)-1-oxobutan-2-yl)-3-phenyl-5,6,7,8-tetrahydroimidazo[1,5-a]pyrazine-1-carboxamide] | > 10000
5 | COC(=O)N1CCn2c(-c3ccccc3)nc(C(=O)NCC3CCOCC3)c2C1 [Compound 186, methyl 3-phenyl-1-((tetrahydro-2H-pyran-4-yl)methylcarbamoyl)-5,6-dihydroimidazo[1,5-a]pyrazine-7(8H)-carboxylate] | > 10000
6 | CNC(=O)[C@@H](NC(=O)c1nc(-c2ccc(C(=O)N(C)C)cc2)n2c1CN(C)CCC2)C(C)(C)C [Compound 394, (S)-N-(3,3-dimethyl-1-(methylamino)-1-oxobutan-2-yl)-3-(4-(dimethylcarbamoyl)phenyl)-8-methyl-6,7,8,9-tetrahydro-5H-imidazo[1,5-a][1,4]diazepine-1-carboxamide] | > 10000

same assay, conditions: agonist or inverse agonist at hCB2

Row | Structure (SMILES) | +/− HCB2
7 | CNC(=O)[C@@H](NC(=O)c1nc(-c2ccccc2)n2c1CNCC2)C(C)(C)C [Compound 2, (S)-N-(3,3-dimethyl-1-(methylamino)-1-oxobutan-2-yl)-3-phenyl-5,6,7,8-tetrahydroimidazo[1,5-a]pyrazine-1-carboxamide] | +
8 | O=C(NC1CCCCC1)c1nc(-c2ccccc2)n2c1CNCC2 [Compound 47, N-cyclohexyl-3-phenyl-5,6,7,8-tetrahydroimidazo[1,5-a]pyrazine-1-carboxamide] | +
9 | CC(C)CN1CCn2c(-c3ccccc3)nc(C(=O)N[C@H](C)C(C)(C)C)c2C1 [Compound 52, (R)-N-(3,3-dimethylbutan-2-yl)-7-isobutyl-3-phenyl-5,6,7,8-tetrahydroimidazo[1,5-a]pyrazine-1-carboxamide] | +
10 | CNC(=O)[C@@H](NC(=O)c1nc(-c2ccccc2)n2c1CN(CCC(C)(C)C)CC2)C(C)(C)C [Compound 54, (S)-N-(3,3-dimethyl-1-(methylamino)-1-oxobutan-2-yl)-7-(3,3-dimethylbutan)-3-phenyl-5,6,7,8-tetrahydroimidazo[1,5-a]pyrazine-1-carboxamide] | −
11 | CNC(=O)[C@@H](NC(=O)c1nc(-c2ccccc2)n2c1CN(C(C)=O)CC2)C(C)(C)C [Compound 174, (S)-7-acetyl-N-(3,3-dimethyl-1-(methylamino)-1-oxobutan-2-yl)-3-phenyl-5,6,7,8-tetrahydroimidazo[1,5-a]pyrazine-1-carboxamide] | +
12 | CNC(=O)[C@@H](NC(=O)c1nc(C2=CCCC2)n2c1CN(C)CC2)C(C)(C)C [Compound 238, (S)-3-cyclopentenyl-N-(3,3-dimethyl-1-(methylamino)-1-oxobutan-2-yl)-7-methyl-5,6,7,8-tetrahydroimidazo[1,5-a]pyrazine-1-carboxamide] | +
13 | CNC(=O)[C@@H](NC(=O)c1nc(-c2ccc(F)cc2)n2c1CN(C)CC2)C(C)(C)C [Compound 247, (S)-N-(3,3-dimethyl-1-(methylamino)-1-oxobutan-2-yl)-3-(4-fluorophenyl)-7-methyl-5,6,7,8-tetrahydroimidazo[1,5-a]pyrazine-1-carboxamide] | +
14 | CNC(=O)[C@@H](NC(=O)c1nc(-c2ccccc2F)n2c1CN(C)CC2)C(C)(C)C [Compound 258, (S)-N-(3,3-dimethyl-1-(methylamino)-1-oxobutan-2-yl)-3-(2-fluorophenyl)-7-methyl-5,6,7,8-tetrahydroimidazo[1,5-a]pyrazine-1-carboxamide] | +
15 | CNC(=O)[C@@H](NC(=O)c1nc(-c2ccccc2)n2c1CN(c1ncccn1)CC2)C(C)(C)C [Compound 298, N-(3,3-dimethyl-1-(methylamino)-1-oxobutan-2-yl)-3-phenyl-7-(pyrimidin-2-yl)-5,6,7,8-tetrahydroimidazo[1,5-a]pyrazine-1-carboxamide] | +
16 | CNC(=O)[C@@H](NC(=O)c1nc(CCCN2CCCCC2)n2c1CN(C)CC2)C(C)(C)C [Compound 307, (S)-N-(3,3-dimethyl-1-(methylamino)-1-oxobutan-2-yl)-7-methyl-3-(3-(piperidin-1-yl)propyl)-5,6,7,8-tetrahydroimidazo[1,5-a]pyrazine-1-carboxamide] | +
17 | CNC(=O)[C@@H](NC(=O)c1nc(-c2ccccc2)n2c1CN(C)CCC2)C(C)(C)C [Compound 317, (S)-N-(3,3-dimethyl-1-(methylamino)-1-oxobutan-2-yl)-8-methyl-3-phenyl-6,7,8,9-tetrahydro-5H-imidazo[1,5-a][1,4]diazepine-1-carboxamide] | +
18 | CNC(=O)[C@@H](NC(=O)c1nc(/C=C/COC)n2c1CN(C)CCC2)C(C)(C)C [Compound 398, (S,E)-N-(3,3-dimethyl-1-(methylamino)-1-oxobutan-2-yl)-3-(3-methoxyprop-1-enyl)-8-methyl-6,7,8,9-tetrahydro-5H-imidazo[1,5-a][1,4]diazepine-1-carboxamide] | +

same assay, conditions: groups >100 nM-10 μM and >10 μM; cAMP, CHO-K1 hCB2; read-out: EC50 HCB2

Row | Structure (SMILES) | EC50 [nM]
19 | CC12CCC(C1)C(C)(C)C2NC(=O)c1nc(-c2ccccc2)n2c1CN(C(=O)c1ccco1)CC2 (stereo not drawn) [Compound 122, 7-(furan-2-carbonyl)-3-phenyl-N-(1,3,3-trimethylbicyclo[2.2.1]heptan-2-yl)-5,6,7,8-tetrahydroimidazo[1,5-a]pyrazine-1-carboxamide] | > 10000
20 | CN1CCn2c(-c3ccc(Cl)cc3F)nc(C(=O)N3CCC(n4cc(-c5ccccc5)[nH]c4=O)CC3)c2C1 [Compound 227, 1-(1-(3-(4-chloro-2-fluorophenyl)-7-methyl-5,6,7,8-tetrahydroimidazo[1,5-a]pyrazine-1-carbonyl)piperidin-4-yl)-4-phenyl-1H-imidazol-2(3H)-one] | > 10000
21 | CNC(=O)[C@@H](NC(=O)c1nc(-c2ccc(C(=O)N3CCN(C)CC3)cc2)n2c1CN(C)CCC2)C(C)(C)C [Compound 392, (S)-N-(3,3-dimethyl-1-(methylamino)-1-oxobutan-2-yl)-8-methyl-3-(4-(4-methylpiperazin-1-carbonyl)phenyl)-6,7,8,9-tetrahydro-5H-imidazo[1,5-a][1,4]diazepine-1-carboxamide] | > 10000

Reference: patent publication US7517874B2 (priority 2007, dated 2009)
